Experiment: Blood-brain barrier penetration by the method of Oldendorf (radioactively marked active material, A. carotis injection, brain radioactivity after 15 seconds)
Conditions: + dissolved in inger albumin
Protocol: The effectiveness of the medicament according to the invention was tested according to the method of Oldendorf (Brain-Res., 24, 372-376 (1970)). […] In the case of the medicament according to the invention, the administration took place into the A. carotis. 15 seconds later, the experimental animal was decapitated, the brain removed and the radioactivity bound therein determined. […] The numerical values give the percentage proportion of active material which has passed the blood-brain barrier. As comparative substance, there was employed an isotonic buffer solution. The compound of the general formula was present in iso-osmolar concentration, which corresponds to about 0.3 Osmol/ 1. in the solution administered.
In the case of the experiments according to the method of Oldendorf, the active materials were used in amounts of between 10 and 100 μmol. There was thereby obtained no dependency of the penetration percentage of the active material concentration, i.e. that with increasing amount of active material, the percentage passing the blood-brain barrier remained about the same. In the case of methotrexate as active material, the penetration was also investigated in the case of higher concentrations.
The penetration achieved also depends upon the amount of glycerol derivative of the general formula used. […]

Substance: phosphatidyl-choline [phosphatidylcholine]
- percentage proportion of active material which has passed the blood-brain barrier, with C5 (with addition of glycerol 1-pentyl ether, about 0.3 Osmol/l): 16.3 ± 3.3%
- percentage proportion of active material which has passed the blood-brain barrier, without (without addition of a compound of the general formula): 2.6 ± 0.8%
